1 compound from patent US20210378995A1, “METHODS AND TOPICAL PHARMACEUTICAL COMPOSITIONS FOR THE TREATMENT OF SKIN MICROVASCULAR DYSFUNCTION” (INSERM (INSTITUT NATIONAL DE LA SANTÉ ET DE LA RECHERCHE …, priority 2018, published 2021) can be followed below.

In this assay the test system is db/db mice. Conditions: db/db mice dorsal skin, vs before application.

`O=C(NC12CC3CC(CC(C3)C1)C2)N[C@H]1CC[C@H](Oc2ccc(C(=O)O)cc2)CC1` (relative stereo) [t-AUCB, trans-4-[4-(3-Adamantan-1-yl-ureido)-cyclohexyloxy]-benzoic acid]: the “thermal hyperemia 24 hours after application” value is “returned to baseline values”.
